Earlier results as cited in US6900203B2, “Optically active fluorinated vasoconstrictors, methods for making them, and anesthetic formulations comprising them” (Polium Technologies, Inc., priority 2002, dated 2005).

The chains behind the UniProt entries cited, without tags or fusion partners.
UniProt P08588, whole entry: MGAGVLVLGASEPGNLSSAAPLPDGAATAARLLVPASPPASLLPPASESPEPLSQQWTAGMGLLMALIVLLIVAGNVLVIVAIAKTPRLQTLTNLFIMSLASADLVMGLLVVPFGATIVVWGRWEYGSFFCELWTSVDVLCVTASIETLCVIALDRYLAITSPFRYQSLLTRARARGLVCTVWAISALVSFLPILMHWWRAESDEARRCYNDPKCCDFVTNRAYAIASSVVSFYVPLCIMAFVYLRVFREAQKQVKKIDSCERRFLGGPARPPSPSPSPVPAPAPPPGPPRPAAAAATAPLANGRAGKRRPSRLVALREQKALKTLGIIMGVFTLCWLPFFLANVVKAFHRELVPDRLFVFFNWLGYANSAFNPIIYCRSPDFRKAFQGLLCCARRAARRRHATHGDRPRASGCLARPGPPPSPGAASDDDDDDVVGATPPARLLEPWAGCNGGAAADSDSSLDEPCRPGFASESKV

Target: β1 (Homo sapiens, UniProt P08588)
Settings: read-out: Receptor affinity β1

Ki [µM] | Compound
1.1 ± 0.3 | CNC[C@H](O)c1ccc(O)c(O)c1 [(R)-epinephrine]
13 ± 2 | CNC[C@@H](O)c1ccc(O)c(O)c1 [(S)-epinephrine]
